# Only a part is listed here, and it is no random draw. Some results for these compounds are left out of this collection, so the calls shown say nothing about other tests. Inconclusive results are not listed. Calls of active or inactive are those of the source. The call rests on the fitted dose curve; in most records, active means well fitted activation curve with a large enough effect; inconclusive means small, poorly fitted or top-dose-only effect; inactive means no such curve, though single readings can be large or run the other way.
# Assay: qHTS screen for small molecules that induce genotoxicity in human embryonic kidney (HEK293T) cells expressing luciferase-tagged ELG1; further: % of control where 0% means no effect; nearly all actives have a fitted effect of over 60% in size
# Details: HEK293T ELG1-luciferase reporter, luminescence, 16 h; at 46 µM (top of the series)
# Text: NIH Molecular Libraries Probe Production Network [MLPCN] NIH Chemical Genomics Center [NCGC] MLPCN Grant: 1 R03 MH092164-01 Assay Provider: Kyungjae Myung, NHGRI, NIH Keywords: MLPCN, qHTS, NCGC, genotoxicity, cancer Assay Overview: Cancer cells divide rapidly compared to normal cells in the body. During cell division, cancer cells need to duplicate their genome by DNA replication. The failure of genome duplication leads to cancer cells' death. Therefore, inhibitors of DNA replication could specifically kill cancer cells. Based on this concept, many chemotherapeutic agents were developed and have been used to treat cancer patients. However, there are a limited number of agents available in the clinical setting, and some of those that do exist have low efficacy and severe side effects. Therefore, if we can find the compounds that effectively block DNA replication either by directly damaging DNA or by inhibiting other cellular mechanisms, the options for cancer treatment will be broadened. With this in mind, we developed a quantitative high-throughput ELG1-luciferase reporter gene assay. Since the level of human ELG1 protein is enhanced in response to genetic stresses, increases in luciferase activity can be used to identify compounds that cause genetic stress.
# Assay Protocol Summary: For genotoxicity screening, 2,000 cells in 5 uL/well were dispensed into white, solid-bottom 1536-well plates using a solenoid-based dispenser. Following transfer of 23 nL compound or DMSO vehicle by a pin tool, the plates were incubated 16 hr at 37 °C and 5% CO2. 5 ul ONE-Glo (Promega) was then added to each plate and following a 30 min incubation at room temperature, luciferase activity was quantified on a ViewLux CCD-based plate reader.
row,Compound,"activity change, positive = activation"
1,O=C(OC1CN2CCC1CC2)C(CO)(c1ccccc1)c1ccccc1 (centres undefined),inactive: 1.53%
2,CC(C)Oc1ccc(C(=O)NCC2(N(C)C)CCCCC2)cc1,inactive: -1.18%
3,CN(C)c1cccc(C(=O)NCC2(N(C)C)CCCCC2)c1,inactive: 1.8%
4,COc1ccc(Br)c(C(=O)NCC2(N3CCCCC3)CCCCC2)c1,inactive: -4.04%
5,COc1cc(C(=O)NCC2(N(C)C)CCCCC2)c([N+](=O)[O-])cc1OC,inactive: -2.07%
6,CN(C)C1(CNC(=O)c2ccc(Br)cc2)CCCCC1,inactive: -0.571%
7,O=C(NCC1(N2CCCCC2)CCCCC1)c1cccc(Cl)c1,inactive: 2.98%
8,COc1cccc(C(=O)NCC2(N3CCCCC3)CCCCC2)c1,inactive: -0.156%
9,COc1ccc(Cl)cc1C(=O)NCC1(N(C)C)CCCCC1,inactive: -1.47%
10,Cc1ccccc1C(=O)NCC1(N2CCCCC2)CCCCC1,inactive: 0.19%
11,CN(C)C1CCCC1OC(=O)C(O)(c1ccccc1)c1ccccc1 (centres undefined),inactive: -1.4%
12,CN(C)c1ccc(C(=O)NCC2(N(C)C)CCCCC2)cc1,inactive: 6.43%
13,COc1ccc(C(=O)NCC2(N(C)C)CCCCC2)cc1,inactive: 2.43%
14,Cc1cc(C(=O)NCC2(N3CCCCC3)CCCCC2)ccc1[N+](=O)[O-],inactive: -2.82%
15,CCN1CCCC(OC(=O)C2(O)c3ccccc3C=Cc3ccccc32)C1 (centres undefined),inactive: -7.8%
16,O=C(NCC1(N2CCCCC2)CCCCC1)c1cccc(Br)c1,inactive: -2.48%
17,C=CCN1CCN(CCOC(=O)C(O)(c2ccccc2)c2ccccc2)CC1,inactive: -4.84%
18,O=C(NCC1(N2CCCCC2)CCCCC1)c1cc(F)c(F)cc1Cl,inactive: 4.65%
19,CN1[C@@H]2CC[C@H]1CC(OC(=O)C(O)(c1ccccc1)c1ccccc1)C2 (some centres undefined),inactive: -0.295%
20,O=C(NCC1(N2CCCCC2)CCCCC1)c1cc([N+](=O)[O-])ccc1Cl,inactive: -3.86%
21,Cc1ccc(C(=O)NCC2(N3CCCCC3)CCCCC2)cc1,inactive: 0.295%
22,CCN(CC)CC(C)C(C)OC(=O)C(O)(c1ccccc1)c1ccccc1 (centres undefined),inactive: -3.1%
23,COc1cc(SC)ccc1C(=O)NCC1(N(C)C)CCCCC1,inactive: -0.244%
24,CC(C)N1C(=O)CC2(CCN(CCOC(=O)C(O)(c3ccccc3)c3ccccc3)CC2)C1=O,inactive: -3.69%

# — PubChem BioAssay AID504466 (National Center for Advancing Translational Sciences (NCATS), 2011)
